Read-outs that look alike come from different tables or passages of the source.
Key:
CDK2/CycA2 = CDK2/CycA2 (Homo sapiens, UniProt P24941); experiment: CDK2 mobility shift assay (enzymatic activity of CDK2/CycA2); details: read-out: CDK2 IC50, 1.25 nM CDK2/CycA2, 37 μM ATP, FL Peptide 18, 120 min at room temperature
CDK5/p25 = CDK5/p25 (Homo sapiens, UniProt Q00535); experiment: CDK5 mobility shift assay (enzymatic activity of CDK5/p25); details: for CDK5/CDK2 specificity: fold more active against CDK5 than CDK2; for IC50: read-out: CDK5 IC50, 0.154 nM CDK5/p25, FL peptide 29, 60 min at room temperature

Protein sequences, listed by entry. Tags and fused reporters are not part of them. Residues count along the entry.
UniProt Q00535, whole entry: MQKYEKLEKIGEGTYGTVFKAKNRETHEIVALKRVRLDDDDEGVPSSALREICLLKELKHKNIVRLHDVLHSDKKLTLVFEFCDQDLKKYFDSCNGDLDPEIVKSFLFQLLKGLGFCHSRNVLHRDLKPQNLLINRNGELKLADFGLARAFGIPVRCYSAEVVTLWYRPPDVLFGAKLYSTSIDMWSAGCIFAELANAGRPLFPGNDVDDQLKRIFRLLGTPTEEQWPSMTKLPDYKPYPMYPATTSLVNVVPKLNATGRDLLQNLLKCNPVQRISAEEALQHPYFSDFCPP
UniProt Q15078, 99-307 partner limits assumed: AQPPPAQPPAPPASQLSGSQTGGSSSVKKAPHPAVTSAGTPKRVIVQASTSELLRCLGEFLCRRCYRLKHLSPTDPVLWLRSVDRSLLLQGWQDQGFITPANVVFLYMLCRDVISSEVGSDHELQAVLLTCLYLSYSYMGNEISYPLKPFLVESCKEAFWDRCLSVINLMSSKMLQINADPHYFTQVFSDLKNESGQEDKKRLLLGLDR

IC50 (CDK2/CycA2)	IC50 (CDK5/p25)	IC50 (CDK2/CycA2; tested form: formate)	IC50 (CDK5/p25; tested form: formate)	SMILES	CDK5/CDK2 specificity (CDK5/p25)	CDK5/CDK2 specificity (CDK5/p25; tested form: formate)
> 1000 nM	10 to 100 nM			C[C@H]1C[C@H](S(=O)(=O)c2ccc3cnc(Nc4ccc(-n5ccc(CO)n5)cc4F)cc3n2)CCN1	++ (greater than 10-fold and less than or equal to 100-fold more active against CDK5 than CDK2)	
100 to 1000 nM	< 10 nM			CN1CCC(S(=O)(=O)c2ccc3cnc(Nc4ccc(-c5cccc(C(N)=O)c5)cc4F)cc3n2)CC1	+++ (greater than 100-fold more active against CDK5 than CDK2)	
> 1000 nM	10 to 100 nM			C[C@H]1C[C@@H](S(=O)(=O)c2ccc3cnc(Nc4ccc(-n5ccc(CO)n5)cc4F)cc3n2)CCN1	++ (greater than 10-fold and less than or equal to 100-fold more active against CDK5 than CDK2)	
100 to 1000 nM	10 to 100 nM			CN1CCC(C(O)(c2ccc3cnc(Nc4ccc(-c5cccn(C)c5=O)cc4F)cc3n2)C(F)(F)F)CC1 (single isomer, unassigned) [396]	++ (greater than 10-fold and less than or equal to 100-fold more active against CDK5 than CDK2)	
100 to 1000 nM	< 10 nM			Cc1ccc(-c2ccc(Nc3cc4nc(S(=O)(=O)C5CCN(C)CC5)ccc4cn3)c(F)c2)cc1	+++ (greater than 100-fold more active against CDK5 than CDK2)	
> 1000 nM	< 10 nM			N#Cc1cccc(-c2ccc(Nc3cc4nc(S(=O)(=O)C5CCN(CCO)CC5)ccc4cn3)c(F)c2)c1	+++ (greater than 100-fold more active against CDK5 than CDK2)	
> 1000 nM	100 to 1000 nM			O=S(=O)(c1ccc2cnc(Nc3ccc(-n4ccc(CO)n4)cc3F)cc2n1)C1CNC1	+ (10-fold or less more active against CDK5 than CDK2)	
100 to 1000 nM	< 10 nM			CN1CCC([C@@](C)(O)c2ccc3cnc(Nc4ccc(-c5ccc[nH]c5=O)cc4F)cc3n2)CC1	++ (greater than 10-fold and less than or equal to 100-fold more active against CDK5 than CDK2)	
100 to 1000 nM	10 to 100 nM			CN1CCC(Sc2ccc3cnc(Nc4ccc(-n5ccc(CO)n5)cc4F)cc3n2)C(F)(F)C1 (stereo not drawn)	++ (greater than 10-fold and less than or equal to 100-fold more active against CDK5 than CDK2)	
100 to 1000 nM	< 10 nM			COc1ccc(-c2ccc(Nc3cc4nc(S(=O)(=O)C5CCN(C)CC5)ccc4cn3)c(F)c2)cc1	+++ (greater than 100-fold more active against CDK5 than CDK2)	
10 to 100 nM	< 10 nM			OCc1ccn(-c2ccc(Nc3cc4nc(SC5CCNCC5(F)F)ccc4cn3)c(F)c2)n1 (stereo not drawn)	++ (greater than 10-fold and less than or equal to 100-fold more active against CDK5 than CDK2)	
10 to 100 nM	< 10 nM			CN1CCC(S(=O)(=O)c2ccc3cnc(Nc4ccc5c(c4)CCNC5=O)cc3n2)CC1	++ (greater than 10-fold and less than or equal to 100-fold more active against CDK5 than CDK2)	
100 to 1000 nM	10 to 100 nM			CN1CCC(S(=O)(=O)c2ccc3cnc(Nc4ccc(=O)[nH]c4)cc3n2)CC1	++ (greater than 10-fold and less than or equal to 100-fold more active against CDK5 than CDK2)	
> 1000 nM	< 10 nM			COc1cccc(-c2ccc(Nc3cc4nc(S(=O)(=O)C5CCN(C)CC5)ccc4cn3)c(F)c2)n1	+++ (greater than 100-fold more active against CDK5 than CDK2)	
100 to 1000 nM	10 to 100 nM			OCc1ccnn1-c1ccc(Nc2cc3nc(NC4CCNCC4)ccc3cn2)c(F)c1	++ (greater than 10-fold and less than or equal to 100-fold more active against CDK5 than CDK2)	
> 1000 nM	> 1000 nM			CO/N=C(/c1ccc2cnc(Nc3ccc(-n4cccn4)cc3F)cc2n1)C1CCN(C)CC1	++ (greater than 10-fold and less than or equal to 100-fold more active against CDK5 than CDK2)	
10 to 100 nM	< 10 nM			CCc1cccc(Nc2cc3nc(S(=O)(=O)C4CCN(C)CC4)ccc3cn2)c1	+++ (greater than 100-fold more active against CDK5 than CDK2)	
100 to 1000 nM	100 to 1000 nM			N[C@H]1C[C@H](S(=O)(=O)c2ccc3cnc(Nc4ccc(-n5ccc(CO)n5)cc4F)cc3n2)C1 (relative stereo)	+ (10-fold or less more active against CDK5 than CDK2)	
		100 to 1000 nM	< 10 nM	C[C@H]1CNCC[C@@H]1S(=O)(=O)c1ccc2cnc(Nc3ccc(-n4ccc(CO)n4)cc3F)cc2n1		++ (greater than 10-fold and less than or equal to 100-fold more active against CDK5 than CDK2)

IC50 (CDK2/CycA2)	IC50 (CDK5/p25)	IC50 (CDK2/CycA2; tested form: formate)	IC50 (CDK5/p25; tested form: formate)	SMILES	CDK5/CDK2 specificity (CDK5/p25)	CDK5/CDK2 specificity (CDK5/p25; tested form: formate)
100 to 1000 nM	< 10 nM			CN1CCC(S(=O)(=O)c2ccc3cnc(Nc4ccc(-c5cccnc5)cc4F)cc3n2)CC1	+++ (greater than 100-fold more active against CDK5 than CDK2)	
100 to 1000 nM	< 10 nM			CN1CCC([C@@](C)(O)c2ccc3cnc(Nc4cc(N5CCOCC5)ccc4F)cc3n2)CC1	+++ (greater than 100-fold more active against CDK5 than CDK2)	
100 to 1000 nM	10 to 100 nM			C[C@H]1CNCC[C@H]1Sc1ccc2cnc(Nc3ccc(-n4ccc(CO)n4)cc3F)cc2n1	++ (greater than 10-fold and less than or equal to 100-fold more active against CDK5 than CDK2)	
10 to 100 nM	< 10 nM			N#Cc1cccc(-c2ccc(Nc3cc4nc(SC5CCNCC5)ccc4cn3)c(F)c2)c1	++ (greater than 10-fold and less than or equal to 100-fold more active against CDK5 than CDK2)	
10 to 100 nM	< 10 nM			CN1CCC(S(=O)(=O)c2ccc3cnc(Nc4cccc(CC#N)c4)cc3n2)CC1	++ (greater than 10-fold and less than or equal to 100-fold more active against CDK5 than CDK2)	
100 to 1000 nM	< 10 nM			CC(C)N1CCC([C@@](C)(O)c2ccc3cnc(Nc4ccc(-c5cccn(C)c5=O)cc4F)cc3n2)CC1	++ (greater than 10-fold and less than or equal to 100-fold more active against CDK5 than CDK2)	
100 to 1000 nM	10 to 100 nM			CN[C@H](c1ccc2cnc(Nc3ccc(-n4cccn4)cc3F)cc2n1)C1CCN(C)CC1	++ (greater than 10-fold and less than or equal to 100-fold more active against CDK5 than CDK2)	
> 1000 nM	100 to 1000 nM			C[C@@H]1C[C@H](S(=O)(=O)c2ccc3cnc(Nc4ccc(-n5ccc(CO)n5)cc4F)cc3n2)CCN1	+ (10-fold or less more active against CDK5 than CDK2)	
100 to 1000 nM	10 to 100 nM			Cc1ccc(N2CCCC2=O)cc1Nc1cc2nc(C(C)(O)C3CCN(C)CC3)ccc2cn1 (stereo not drawn)	++ (greater than 10-fold and less than or equal to 100-fold more active against CDK5 than CDK2)	
> 1000 nM	< 10 nM			CN1CCC(S(=O)(=O)c2ccc3cnc(Nc4ccc(-c5cccc(C#N)c5)cc4F)cc3n2)CC1	+++ (greater than 100-fold more active against CDK5 than CDK2)	
100 to 1000 nM	100 to 1000 nM			OCc1ccn(-c2ccc(Nc3cc4nc(NC5CC6CCCC(C5)N6)ccc4cn3)c(F)c2)n1 (stereo not drawn)	+ (10-fold or less more active against CDK5 than CDK2)	
10 to 100 nM	< 10 nM			COc1ccc(-c2ccc(Nc3cc4nc([C@](C)(O)C5CCN(C)CC5)ccc4cn3)c(F)c2)cc1	++ (greater than 10-fold and less than or equal to 100-fold more active against CDK5 than CDK2)	
> 1000 nM	> 1000 nM			CN1CCC(S(=O)(=O)c2ccc3cnc(Nc4cc[nH]c(=O)c4)cc3n2)CC1	+ (10-fold or less more active against CDK5 than CDK2)	
> 1000 nM	< 10 nM			CN1CCC(S(=O)(=O)c2ccc3cnc(Nc4ccc(-c5cccc(F)c5)cc4F)cc3n2)CC1	+++ (greater than 100-fold more active against CDK5 than CDK2)	
100 to 1000 nM	< 10 nM			N[C@H]1CC[C@@H](S(=O)(=O)c2ccc3cnc(Nc4ccc(-n5cccn5)cc4F)cc3n2)CC1	++ (greater than 10-fold and less than or equal to 100-fold more active against CDK5 than CDK2)	
> 1000 nM	100 to 1000 nM			CCC(c1ccc2cnc(Nc3ccc(-n4ccc(CO)n4)cc3F)cc2n1)C1CCNCC1 (stereo not drawn)	++ (greater than 10-fold and less than or equal to 100-fold more active against CDK5 than CDK2)	
100 to 1000 nM	< 10 nM			COC(=O)c1ccn(-c2ccc(Nc3cc4nc([C@@H](C)C5CCN(C)CC5)ccc4cn3)c(F)c2)n1	+++ (greater than 100-fold more active against CDK5 than CDK2)	
100 to 1000 nM	10 to 100 nM			C[C@H]1CN(C)CC[C@@H]1S(=O)(=O)c1ccc2cnc(Nc3ccc(-n4ccc(CO)n4)cc3F)cc2n1	++ (greater than 10-fold and less than or equal to 100-fold more active against CDK5 than CDK2)	
100 to 1000 nM	< 10 nM			CN1CCC(S(=O)(=O)c2ccc3cnc(Nc4ccc(C5CCOCC5)cc4)cc3n2)CC1	+++ (greater than 100-fold more active against CDK5 than CDK2)	

SMILES	IC50 (CDK2/CycA2)	IC50 (CDK5/p25)	IC50 (CDK2/CycA2; tested form: formate)	IC50 (CDK5/p25; tested form: formate)	CDK5/CDK2 specificity (CDK5/p25)	CDK5/CDK2 specificity (CDK5/p25; tested form: formate)
O=C(O)CN(c1ccc2cnc(Nc3ccc(-n4ccc(CO)n4)cc3F)cc2n1)C1CC2CCCC(C1)N2 (stereo not drawn)	> 1000 nM	100 to 1000 nM			+ (10-fold or less more active against CDK5 than CDK2)	
O=C(O)CCN(c1ccc2cnc(Nc3ccc(-n4ccc(CO)n4)cc3F)cc2n1)C1CCNCC1	> 1000 nM	100 to 1000 nM			++ (greater than 10-fold and less than or equal to 100-fold more active against CDK5 than CDK2)	
